The results in this text go back to PMC8958505, “Discovery of Potential Neuroprotective Agents against Paclitaxel-Induced Peripheral Neuropathy” (Journal of Medicinal Chemistry, 2022).

Structures are written as SMILES. Counter-ions that a name gives are not always drawn. Like-named read-outs stand apart in the source and are kept apart here.

One experiment has as its target Androgen (Testosterone) (Homo sapiens, UniProt P10275). The experiment is described as follows: LeadProfilingScreen: Androgen (Testosterone). The class given is binding.
The target of experiment [1] is Transporter, Dopamine (DAT) (Homo sapiens, UniProt Q01959). Description: LeadProfilingScreen: Transporter, Dopamine (DAT). The class given is binding.
For another experiment, the target named is GABAB1A (Homo sapiens, UniProt Q9UBS5). Description: LeadProfilingScreen: GABAB1A. It counts as binding.
The target of another experiment is Adenosine A2A (Homo sapiens, UniProt P29274). Description: LeadProfilingScreen: Adenosine A2A. It counts as binding.
In another experiment the test system is Purinergic P2X. Description: LeadProfilingScreen: Purinergic P2X. It counts as binding, rat. As to conditions: 10 μM.
The subject of experiment [2] is paclitaxel-induced neuropathy in C57BL/6 mice. Description: von Frey filament test (mechanical) in paclitaxel-induced neuropathy. It counts as in vivo, mouse. The procedure: Three behavioral models of paclitaxel-induced neuropathy were used to verify the neuroprotective effect of CN016. Namely, thermal and mechanical nociceptive reactions described below were evaluated by tail immersion and von Frey filament tests, respectively, and motor coordination was assessed with the rotarod performance test (Supporting Information, Figure S1A,B). To mimic the clinical therapeutic regimen, CN016 (5, 10 and 20 mg/kg) was administrated to 7-week-old female C57BL/6 mice by intraperitoneal injection (IP) 1 h prior to each injection of paclitaxel (4.5 mg/kg) on four alternate days (days 1, 3, 5, and 7). Each test’s basal level was recorded before treatment, and additional sessions of behavior tests were performed weekly for five weeks (Figure 4A).
The baseline of every neurological behavior test was measured in 6-week-old C57BL/6J female mice prior to treatment. […] Mechanical hyperalgesia was evaluated by using von Frey filament (#2390, IITC Inc., USA), thermal sensitivity was determined by the tail immersion assay (water temperature: 48–49 °C), and motor coordination was assessed by rotarod (#7750, Ugo Basile Biological Research Apparatus, Italy). After the first drug implantation, the body weight was recorded every 6 days throughout the entire experiment.

The next experiment addresses Transporter, GABA (Rattus norvegicus, UniProt P23978). The experiment is described as follows: LeadProfilingScreen: Transporter, GABA. The class given is binding.
For experiment [3], the system named is mouse primary DRG neurons. Description: Neurite outgrowth assay of DRG neurons (image-based HCS) against paclitaxel-induced neurotoxicity. The class given is cell-based. As to conditions: for activation at 1 µM: Mus musculus, DRG neuron. As for the experimental part: All these 19 compounds were then subjected to the neurite outgrowth assay of dorsal root ganglion (DRG) neurons paired with an image-based HCS to analyze whether they had neuroprotective potential. Quantification of neurite outgrowth under different regimens is shown in Figure 3, wherein DRG neurons incubated in 50 nM paclitaxel could cause 60% reduction in neurite outgrowth compared to the control (no drug treatment). […] Taken together, CN016 is selected as a promising lead for further development.
Primary cortical or DRG cells were fixed with 4% paraformaldehyde for 15 min following compound and paclitaxel treatment. After washing with PBS, the fixed cells were permeabilized with PBS containing 0.05% Triton X-100 for 20 min and then blocked with commercial blocking buffer (#GTX30963; GeneTex, USA) at room temperature for 1 h. Subsequently, the cortical cells were stained for the extending processes and synaptic puncta by using anti-MAP2 (#MBS502140, 1:500; Mybiosource, USA) and anti-synaptophysin (#ab32127, 1:500; Abcam, UK) overnight. DRG cells were stained for the neurite and neuron nucleus by using anti-β III tubulin (#D71G9, 1:600; Cell Signaling, USA) and anti-NeuN monoclonal antibody (#MAB377, 1:400; Millipore, USA) overnight. On the second day, the samples were washed for 30 min with wash buffer and incubated with secondary antibodies (Alexa-488, 647 1:600; Thermo Fisher, USA) and 4 μg/mL Hoechst 33258 (#94403-1ML, 1:100; Merck, USA) at room temperature for 1 h. In the initial experiments of screening the potential neuroprotective compound for CIPN, ImageXpress^Micro (IXM) high-content imaging system (Molecular Devices, USA) driven by MetaXpress software was used. Images of treated cells were automatically acquired by using a 10× objective. Twenty-one images per well were taken in each of three channels (DAPI, FITC, and Cy5) to create a whole view of the entire neural network. The integrity of the neural network was evaluated using TIF images by importing them into MetaXpress software for analysis using the module for multiparameter, such as Neurite Outgrowth, Cell Scoring, and Transfluor. Furthermore, the score of synaptogenesis was analyzed in AcuityXpress software (Molecular Devices, USA).

The target in the next experiment is Adrenergic β1 (Homo sapiens, UniProt P08588). The experiment is described as follows: LeadProfilingScreen: Adrenergic β1. The class given is binding. As to conditions: read-out: Inhibition (%), Adrenergic β1. An excerpt:
LeadProfilingScreen (Total # of Assays: 67)
To evaluate, in LeadProfilingScreen, the activity of test compound CN168 (Panlabs # 1251879). […]
Summary of Significant Results
Biochemical assay results are presented as the percent inhibition of specific binding or activity throughout the report.
All other results are expressed in terms of that assay's quantitation method.
• For primary assays, only the lowest concentration with a significant response judged by the assays' criteria, is […]
• Where applicable, either the secondary assay results with the lowest dose/concentration meeting the significance […]
• Unless otherwise requested, primary screening in duplicate with quantitative data (e.g., IC50 ± SEM, Ki ± SEM and nH) are shown where applicable for individual requested assays. In screening packages, primary screening in duplicate with semi-quantitative data (e.g., estimated IC50, Ki and nH) are shown where applicable (concentration range of 4 log units); available secondary functional assays are carried out ([…]) and MEC or MIC determined only if active in primary assays >50% at 1 log unit below initial test concentration. […]

One may read the inhibition as the relative decrease from the control value, in per cent. In the case of `O=P(O)(O)CCN1CCC(Nc2cc(N3CCOCC3)nc(NCc3cn(CCCO)nn3)n2)CC1` [CN016, {2-[4-(2-{[1-(3-Hydroxy-propyl)-1H-[1,2,3]triazol-4-ylmethyl]-amino}-6-morpholin-4-yl-pyrimidin-4-ylamino)-piperidin-1-yl]-ethyl}-phosphonic Acid Hydrobromide Salt], the inhibition at 10 µM against Androgen (Testosterone) is 6%; in experiment [1] it was 0%; at GABAB1A, 14%; at Adenosine A2A it was 5%; against Transporter, GABA, 2%; at Adrenergic β1, 4%. In addition, in the experiment with Purinergic P2X, the “Inhibition (%), Purinergic P2X” value is given as -9%. The “alleviation of mechanical allodynia (von Frey)” value in [2] (CN016 5 mg/kg IP 1 h prior to paclitaxel 4.5 mg/kg) is “only moderately alleviated”. In addition, the “alleviation of paclitaxel-induced mechanical allodynia (von Frey)” value in experiment [2] (CN016 10 or 20 mg/kg IP 1 h prior to paclitaxel 4.5 mg/kg) is recorded as “able to alleviate”. Moreover, the activation at 1 µM worked out at 21% in [3] (Table 1, A: neurite outgrowth (% of control) of test compound 1000 nM + paclitaxel 50 nM, B: paclitaxel 50 nM alone, DRG neurons, read-out: Neuroprotection rate = (A-B)±S.E.M [%]); 21 ± 0.77% in [3] (Table S2, test compound 1000 nM + paclitaxel 50 nM minus paclitaxel 50 nM, read-out: Neuroprotection rate = (A-B) ± S.E.M [%]); 21% in experiment [3] (supplementary CSV, test compound 1000 nM, read-out: A-B (A: neurite outgrowth (% of control) of test compound (1000 nM) + paclitaxel (50 nM), B: of paclitaxel (50 nM))). Besides, in [3] (neurite outgrowth assay), the “in vitro effective concentration” value was 10 nM. Moreover, the “protective efficacy against paclitaxel-induced neurotoxicity (in words)” value in [3] (pretreated, + 50 nM paclitaxel, DRG neurons) is “exhibited protective efficacy”. Moreover, the “increase of neurite length compared to the positive control (paclitaxel-treated alone)” value in experiment [3] (pretreated, + 50 nM paclitaxel, Figure 3B) is given as 24–28%.
